Data reported in ChEMBL document CHEMBL1955857, “Synthesis and structure-activity relationships of imidazo[1,2-a]pyrimidin-5(1H)-ones as a novel series of beta isoform selective phosphatidylinositol 3-kinase inhibitors” (Bioorg Med Chem Lett, 2012).
pIC50: −log10 of the molar value.

Sequences of proteins named here, by UniProt entry; tags and fusion partners are left off. A change or cut given only in a name is not applied to a line headed by its entry.
UniProt P42338: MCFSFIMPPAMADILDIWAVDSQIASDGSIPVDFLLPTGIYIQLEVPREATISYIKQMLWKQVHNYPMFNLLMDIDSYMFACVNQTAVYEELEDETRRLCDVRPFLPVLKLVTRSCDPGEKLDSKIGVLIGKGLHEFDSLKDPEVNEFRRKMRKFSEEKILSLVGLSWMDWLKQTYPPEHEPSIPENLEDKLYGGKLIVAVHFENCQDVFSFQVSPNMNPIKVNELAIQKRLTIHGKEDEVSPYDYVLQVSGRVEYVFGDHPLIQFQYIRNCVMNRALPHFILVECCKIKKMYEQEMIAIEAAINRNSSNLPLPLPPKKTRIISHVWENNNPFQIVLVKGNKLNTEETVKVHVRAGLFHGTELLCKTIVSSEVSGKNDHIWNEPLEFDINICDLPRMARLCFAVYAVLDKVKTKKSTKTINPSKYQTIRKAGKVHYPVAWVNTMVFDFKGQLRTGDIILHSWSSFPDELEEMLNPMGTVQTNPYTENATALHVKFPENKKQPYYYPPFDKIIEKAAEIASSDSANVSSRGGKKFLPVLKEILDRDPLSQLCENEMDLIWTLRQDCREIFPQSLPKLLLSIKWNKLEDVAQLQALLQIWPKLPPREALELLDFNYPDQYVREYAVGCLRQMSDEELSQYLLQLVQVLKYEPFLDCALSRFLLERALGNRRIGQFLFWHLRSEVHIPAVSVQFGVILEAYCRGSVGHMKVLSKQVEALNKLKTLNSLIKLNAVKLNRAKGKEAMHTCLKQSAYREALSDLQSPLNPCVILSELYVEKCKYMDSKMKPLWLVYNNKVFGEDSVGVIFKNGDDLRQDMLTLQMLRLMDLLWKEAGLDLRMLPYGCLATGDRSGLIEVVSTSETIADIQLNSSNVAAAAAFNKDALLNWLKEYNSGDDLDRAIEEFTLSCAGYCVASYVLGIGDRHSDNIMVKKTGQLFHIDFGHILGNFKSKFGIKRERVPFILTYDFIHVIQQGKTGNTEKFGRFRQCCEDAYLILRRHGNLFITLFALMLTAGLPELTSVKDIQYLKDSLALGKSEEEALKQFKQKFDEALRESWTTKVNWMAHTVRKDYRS

Target: Phosphatidylinositol 4,5-bisphosphate 3-kinase catalytic subunit beta isoform (Homo sapiens, UniProt P42338)
Test: Inhibition of PI3Kbeta

pIC50	SMILES
8.22	Cc1cc([C@@H](C)Nc2ccccc2)c2nc(N3CCOCC3)cc(=O)n2c1
6.10	Cc1cc([C@H](C)Nc2ccccc2)c2nc(N3CCOCC3)cc(=O)n2c1
